Measured values published in patent US20090099157A1, “TETRAHYDRO-PYRAZOLO-PYRIDINE THIOETHER MODULATORS OF CATHEPSIN S” (priority 2007, published 2009).

The chains behind the UniProt entries cited, without tags or fusion partners. Residues count along the entry.
UniProt P25774, 115-331: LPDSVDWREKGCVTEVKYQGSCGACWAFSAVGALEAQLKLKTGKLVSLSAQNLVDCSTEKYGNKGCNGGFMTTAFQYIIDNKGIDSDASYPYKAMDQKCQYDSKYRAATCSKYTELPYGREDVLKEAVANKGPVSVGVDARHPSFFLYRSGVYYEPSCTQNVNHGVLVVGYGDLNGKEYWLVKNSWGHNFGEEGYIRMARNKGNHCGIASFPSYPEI

Target: Recombinant human cathepsin S (CatS) (Homo sapiens, UniProt P25774)
Assay: biochemical

| IC50 [nM] | SMILES |
| --- | --- |
| 820 | O=C1CCCN1C1CCN(C[C@H](O)Cn2nc(-c3ccc(C(F)(F)F)c(SCCN4CCC(F)CC4)c3)c3c2CCNC3)CC1 [Example 429, 1-{1-[(2S)-3-{3-[3-{[2-(4-Fluoropiperidin-1-yl)ethyl]sulfanyl}-4-(trifluoromethyl)phenyl]-4,5,6,7-tetrahydro-1H-pyrazolo[4,3-c]pyridin-1-yl}-2-hydroxypropyl]piperidin-4-yl}pyrrolidin-2-one] |
| 570 | CS(=O)(=O)N1CCc2c(c(-c3ccc(C(F)(F)F)c(SCCN4CCC(O)CC4)c3)nn2CC(O)CN2CCCCC2)C1 (stereo not drawn) [Example 169, 1-[2-({5-[1-(2-Hydroxy-3-piperidin-1-ylpropyl)-5-(methylsulfonyl)-4,5,6,7-tetrahydro-1H-pyrazolo[4,3-c]pyridin-3-yl]-2-(trifluoromethyl)phenyl}sulfanyl)ethyl]piperidin-4-ol] |
| 390 | O[C@@H](CN1CCN(c2cccc(C(F)(F)F)c2)CC1)Cn1nc(-c2ccc(C(F)(F)F)c(SCCN3CCC(F)CC3)c2)c2c1CCNC2 [Example 689, (2S)-1-{3-[3-{[2-(4-Fluoropiperidin-1-yl)ethyl]sulfanyl}-4-(trifluoromethyl)phenyl]-4,5,6,7-tetrahydro-1H-pyrazolo[4,3-c]pyridin-1-yl}-3-{4-[3-(trifluoromethyl)phenyl]piperazin-1-yl}propan-2-ol] |
| 160 | CS(=O)(=O)N1CCc2c(c(-c3ccc(C(F)(F)F)c(SCCN4CCOCC4)c3)nn2CC(O)CN2CCC(c3nnnn3Cc3ccccc3)CC2)C1 (stereo not drawn) [Example 880, 1-[5-(Methylsulfonyl)-3-{3-[(2-morpholin-4-ylethyl)sulfanyl]-4-(trifluoromethyl)phenyl}-4,5,6,7-tetrahydro-1H-pyrazolo[4,3-c]pyridin-1-yl]-3-{4-[1-(phenylmethyl)-1H-tetrazol-5-yl]piperidin-1-yl}propan-2-ol] |
| 270 | CNC(=O)C(=O)N1CCc2c(c(-c3ccc(C(F)(F)F)c(SCCN4CCC(F)CC4)c3)nn2C[C@@H](O)CN2CCCCC2)C1 [Example 432, 2-{3-[3-{[2-(4-Fluoropiperidin-1-yl)ethyl]sulfanyl}-4-(trifluoromethyl)phenyl]-1-[(2S)-2-hydroxy-3-piperidin-1-ylpropyl]-1,4,6,7-tetrahydro-5H-pyrazolo[4,3-c]pyridin-5-yl}-N-methyl-2-oxoacetamide] |

The remaining lines, values behind:

| SMILES | IC50 [nM] |
| --- | --- |
| CS(=O)(=O)N1CCc2c(c(-c3ccc(C(F)(F)F)c(SCCN4CCC(F)(F)C4)c3)nn2CC(O)CN2CCC(C(=O)N3CCCC3)CC2)C1 (stereo not drawn) [Example 825, 1-{3-[3-{[2-(3,3-Difluoropyrrolidin-1-yl)ethyl]sulfanyl}-4-(trifluoromethyl)phenyl]-5-(methylsulfonyl)-4,5,6,7-tetrahydro-1H-pyrazolo[4,3-c]pyridin-1-yl}-3-[4-(pyrrolidin-1-ylcarbonyl)piperidin-1-yl]propan-2-ol] | 65 |
| O=C(CO)N1CCc2c(c(-c3ccc(C(F)(F)F)c(SCCN4CCCC(O)C4)c3)nn2CC(O)CN2CCCCC2)C1 (stereo not drawn) [Example 336, 1-[2-({5-[5-(Hydroxyacetyl)-1-(2-hydroxy-3-piperidin-1-ylpropyl)-4,5,6,7-tetrahydro-1H-pyrazolo[4,3-c]pyridin-3-yl]-2-(trifluoromethyl)phenyl}sulfanyl)ethyl]piperidin-3-ol] | 3880 |
| CS(=O)(=O)N1CCc2c(c(-c3ccc(C(F)(F)F)c(SCCN4CCCC4)c3)nn2CC(O)CN2CCCCC2)C1 (stereo not drawn) [Example 184, 1-[5-(Methylsulfonyl)-3-{3-[(2-pyrrolidin-1-ylethyl)sulfanyl]-4-(trifluoromethyl)phenyl}-4,5,6,7-tetrahydro-1H-pyrazolo[4,3-c]pyridin-1-yl]-3-piperidin-1-ylpropan-2-ol] | 710 |
| CS(=O)(=O)N1CCc2c(c(-c3ccc(C(F)(F)F)c(SCCN4CCC(F)(F)CC4)c3)nn2C[C@@H](O)CN2CCC(C3CCCCC3)CC2)C1 [Example 214, (2S)-1-(4-Cyclohexylpiperidin-1-yl)-3-{3-[3-{[2-(4,4-difluoropiperidin-1-yl)ethyl]sulfanyl}-4-(trifluoromethyl)phenyl]-5-(methylsulfonyl)-4,5,6,7-tetrahydro-1H-pyrazolo[4,3-c]pyridin-1-yl}propan-2-ol] | 20 |
